Each structure is given as a SMILES string.

Chains of the proteins cited; added tags and fusions are not shown. Lines headed by an entry give the natural chain unless they say otherwise; changes in a name come on top.
UniProt P33535, whole entry: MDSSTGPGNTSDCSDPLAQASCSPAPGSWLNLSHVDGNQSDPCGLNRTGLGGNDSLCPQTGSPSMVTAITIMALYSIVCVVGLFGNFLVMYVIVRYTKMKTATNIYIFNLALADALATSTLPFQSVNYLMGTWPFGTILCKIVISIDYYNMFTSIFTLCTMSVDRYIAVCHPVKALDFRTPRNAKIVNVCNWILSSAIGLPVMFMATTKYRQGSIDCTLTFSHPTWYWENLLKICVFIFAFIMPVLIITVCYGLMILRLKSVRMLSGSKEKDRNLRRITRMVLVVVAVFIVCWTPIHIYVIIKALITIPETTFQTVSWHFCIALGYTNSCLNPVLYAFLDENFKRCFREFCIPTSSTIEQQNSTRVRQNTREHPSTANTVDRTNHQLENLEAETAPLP
UniProt P34975: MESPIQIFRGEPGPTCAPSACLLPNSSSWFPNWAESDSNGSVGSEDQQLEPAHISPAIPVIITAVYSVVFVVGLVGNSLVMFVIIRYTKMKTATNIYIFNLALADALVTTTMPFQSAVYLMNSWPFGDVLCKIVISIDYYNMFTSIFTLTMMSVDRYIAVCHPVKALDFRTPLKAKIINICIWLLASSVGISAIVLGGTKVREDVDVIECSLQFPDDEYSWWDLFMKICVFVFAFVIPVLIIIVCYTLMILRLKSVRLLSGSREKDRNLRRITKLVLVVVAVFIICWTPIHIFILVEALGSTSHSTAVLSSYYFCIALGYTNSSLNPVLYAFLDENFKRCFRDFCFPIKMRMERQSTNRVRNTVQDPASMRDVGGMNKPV

Our source for the Ki values is BindingDB's records for doi:10.1016/j.ejphar.2003.10.049 (University of Innsbruck, 2004).

One test addresses Mu-type opioid receptor (Rattus norvegicus, UniProt P33535).
Test [1] deals with Kappa-type opioid receptor (Rattus norvegicus, UniProt P34975).

For `COC12CC[C@H](N[C@H](C)C(=O)O)[C@@H]3Oc4c(O)ccc5c4[C@@]31CCN(C)C2C5` (stereo partly drawn) [(2S)-2-[4,5alpha-epoxy-3-hydroxy-14beta-methoxy-17-methylmorphinan-6alpha-yl)amino]propanoic acid bis(tetrafluoroborate)], at Mu-type opioid receptor, the Ki stood at 0.77 nM.

In the case of `COC12CC[C@@H](N[C@H](C)C(=O)O)[C@@H]3Oc4c(O)ccc5c4[C@@]31CCN(C)C2C5` (stereo partly drawn) [(2S)-2-[4,5alpha-epoxy-3-hydroxy-14beta-methoxy-17-methylmorphinan-6beta-yl)amino]propanoic acid bis(tetrafluoroborate)], at Mu-type opioid receptor, affinity was put at a Ki of 1.9 nM.

Compound `COC12CC[C@@H](NCC(=O)O)[C@@H]3Oc4c(O)ccc5c4[C@@]31CCN(C)C2C5` (stereo partly drawn) [2-[(4,5alpha-epoxy-3-hydroxy-14beta-methoxy-17-methylmorphinan-6beta-yl)amino]acetic acid bis(tetrafluoroborate)] displayed a Ki in test [1] of 44.8 nM.

Regarding `COC12CC[C@H](NCC(=O)O)[C@@H]3Oc4c(O)ccc5c4[C@@]31CCN(C)C2C5` (stereo partly drawn) [2-[(4,5alpha-epoxy-3-hydroxy-14beta-methoxy-17-methylmorphinan-6alpha-yl)amino]acetic acid bis(tetrafluoroborate)], the inhibition constant Ki in test [1] came to 43.2 nM; on Mu-type opioid receptor, 0.89 nM.
